The values that follow are results of earlier work, collected in US20260041695A1, “COMBINATION THERAPIES FOR TREATMENT OF BREAST CANCER” (Genentech, Inc., priority 2019, published 2026).

The chains behind the UniProt entries cited, without tags or fusion partners.
UniProt P03372, whole entry: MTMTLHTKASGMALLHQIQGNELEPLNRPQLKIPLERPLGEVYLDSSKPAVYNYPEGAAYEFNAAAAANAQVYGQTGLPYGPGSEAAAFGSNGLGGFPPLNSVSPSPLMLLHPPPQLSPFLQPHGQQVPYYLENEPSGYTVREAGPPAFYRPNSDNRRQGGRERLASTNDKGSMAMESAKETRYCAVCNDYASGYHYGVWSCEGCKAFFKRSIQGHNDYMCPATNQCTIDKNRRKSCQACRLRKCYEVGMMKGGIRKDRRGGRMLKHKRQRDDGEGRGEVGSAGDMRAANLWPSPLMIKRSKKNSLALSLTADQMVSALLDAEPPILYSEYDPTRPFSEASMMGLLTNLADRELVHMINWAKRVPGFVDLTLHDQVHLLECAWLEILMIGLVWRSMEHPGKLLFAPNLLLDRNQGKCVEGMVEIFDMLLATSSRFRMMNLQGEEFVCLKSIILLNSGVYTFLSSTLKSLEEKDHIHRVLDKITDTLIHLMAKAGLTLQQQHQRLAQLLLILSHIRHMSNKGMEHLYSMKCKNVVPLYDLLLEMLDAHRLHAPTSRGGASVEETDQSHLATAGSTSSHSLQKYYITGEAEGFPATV

The target in this series is ER (Homo sapiens, UniProt P03372). The conditions noted are these: greater than tamoxifen; cited from earlier work.

For the molecule `C[C@]12CC[C@@H]3c4ccc(O)cc4C[C@@H](CCCCCCCCC[S+]([O-])CCCC(F)(F)C(F)(F)F)[C@H]3[C@@H]1CC[C@@H]2O` (stereo partly drawn) [fulvestrant, (7α,17β)-7-{9-[(4,4,5,5,5-pentafluoropentyl)sulfinyl]nonyl}estra-1,3,5(10)-triene-3,17-diol], the “affinity for the ER relative to tamoxifen” value is on record as “approximately 100 fold”.
